Measurements as given in PubChem BioAssay AID1656 (Sanford-Burnham Center for Chemical Genomics, 2009).
“And” between values parts separate entries of the source, which are not always exact repeats. Equal values may be shown once. Only a part is listed here, and it is no random draw. Some structures show a salt or complex split into parts, the way the source records it. The source made the active and inactive calls.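 How the source made its calls: active means lipid droplet intensity inhibited by at least 50%, with more than 500 cells counted; inconclusive means wells with under 300 cells, treated as cytotoxic; inactive means the rest.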

Experiment: oleate-induced lipid droplet accumulation in AML12 cells – imaging, high-throughput imaging, BODIPY stain, primary screen (AID 1656)
Details: AML12 mouse hepatocytes, oleate lipid droplets, at 6.5 µM, active compounds read high

**Q.** With `O=[As](O)(c1ccccc1)c1ccc(O)cc1` as the molecule, how does the inhibition read?
**A.** inactive: -18.2%

**Q.** With `Cc1cc(-c2cccc3ccccc23)c(C)cn1.O=[N+]([O-])c1cc([N+](=O)[O-])c(O)c([N+](=O)[O-])c1` as the molecule, how does the inhibition read?
**A.** inactive: -3.2%

**Q.** With `O=[N+]([O-])c1cc([N+](=O)[O-])c(NCC2CCS(=O)(=O)C2)c([N+](=O)[O-])c1` (configuration not stated) as the molecule, how does the inhibition read?
**A.** inactive: -22.4%

**Q.** With `O=[N+]([O-])c1ccc(O)c(/C=N/Nc2ccc([N+](=O)[O-])cc2[N+](=O)[O-])c1` as the molecule, how does the inhibition read?
**A.** inactive: -0.7%

**Q.** Which inhibition does the source give for `O=[N+]([O-])c1ccc(OP2(=O)COCCO2)cc1` (configuration not stated) here?
**A.** inactive: 20.8%

**Q.** For `CC(=O)NC(SC(=S)N(C)C)C(Cl)(Cl)Cl` (configuration not stated), which inhibition is on record?
**A.** inactive: -1.6%

**Q.** With `O=[N+]([O-])c1ncn(CCn2cnc([N+](=O)[O-])n2)n1` as the molecule, how does the inhibition read?
**A.** inactive: -3.2%

**Q.** With `O=C(OC1CN2CCC1CC2)c1cccc(Cl)c1` (configuration not stated) as the molecule, how does the inhibition read?
**A.** inactive: 4.7%

**Q.** With `C(Cc1nn[nH]n1)Cc1nn[nH]n1` as the molecule, how does the inhibition read?
**A.** inactive: 8.1%

**Q.** Which inhibition does the source give for `Nc1ccc([As](=O)(O)c2ccc([N+](=O)[O-])cc2)cc1` here?
**A.** inactive: -3.1%

**Q.** Which inhibition does the source give for `O=P(Nc1ccccn1)(c1ccc(Br)cc1)c1ccc(Br)cc1` here?
**A.** inactive: -0.9%

**Q.** With `CN(C)C1(CNC(=O)c2ccc(Cl)c(S(N)(=O)=O)c2)CCCCC1` as the molecule, how does the inhibition read?
**A.** inactive: 9.8%

**Q.** Which inhibition does the source give for `COc1ccc(NP(C)(=O)Oc2ccccc2OC)cc1` (configuration not stated) here?
**A.** inactive: -14.8%

**Q.** With `CN(C)CCOC(=O)C(O)(c1ccccc1)C1CCCCC1` (configuration not stated) as the molecule, how does the inhibition read?
**A.** inactive: -13.7%

**Q.** With `O=P(Nc1nc2ccccc2s1)(c1ccccc1)c1ccccc1` as the molecule, how does the inhibition read?
**A.** inactive: -3.3%

**Q.** For `C[C@H]1OP(=O)(Oc2ccccc2)[C@H](O)[C@H](O)[C@H]1N=[N+]=[N-]` (some centres not stated), which inhibition is on record?
**A.** inactive: -0.7%

**Q.** With `CP(=O)(Nc1ccc2c(c1)OCCO2)Oc1ccccc1` (configuration not stated) as the molecule, how does the inhibition read?
**A.** inactive: 2.4%

**Q.** Which inhibition does the source give for `Cc1ccccc1NP(C)(=O)Nc1ccccc1C` here?
**A.** inactive: -0.3%

**Q.** With `CC(C)C(=O)NC(Sc1ccccc1)C(Cl)(Cl)Cl` (configuration not stated) as the molecule, how does the inhibition read?
**A.** inactive: -42.9%

**Q.** For `O=P(Nc1nccs1)(c1ccccc1)c1ccccc1`, which inhibition is on record?
**A.** inactive: 15.2%

**Q.** With `CP(=O)(Nc1ccc(SC(F)(F)F)cc1)Oc1ccc(F)cc1` (configuration not stated) as the molecule, how does the inhibition read?
**A.** inactive: -32%

**Q.** Which inhibition does the source give for `c1nnnn1CCn1cnnn1` here?
**A.** inactive: 8.8%

**Q.** For `CCOP(C)(=S)SCC(=O)NC(C)(CC)C(=O)O` (configuration not stated), which inhibition is on record?
**A.** inactive: 21.7%

**Q.** With `O=C(OCCN1CCN(CCOCc2ccccc2)CC1)C(O)(c1ccccc1)c1ccccc1` as the molecule, how does the inhibition read?
**A.** inactive: -4.5%

**Q.** Which inhibition does the source give for `C[C@H]1OP(=O)(Oc2ccccc2)C[C@@H]2O[C@@H]21` (some centres not stated) here?
**A.** inactive: -17.4%

**Q.** With `C[C@@H]1C=CCP(=O)(Oc2ccccc2)O1` (some centres not stated) as the molecule, how does the inhibition read?
**A.** inactive: -11.7%

**Q.** For `O=C(OC1CN2CCC1CC2)c1ccc([N+](=O)[O-])cc1` (configuration not stated), which inhibition is on record?
**A.** inactive: -51.8%

**Q.** For `CC(=O)Nc1ccc([As](=O)(O)O)c(O)c1`, which inhibition is on record?
**A.** inactive: -3.5%

**Q.** Which inhibition does the source give for `COc1ccc2c(c1O)-c1c(O)c(OC)cc3c1[C@H](C2)[N+](C)(C)CC3.O=[N+]([O-])c1cc([N+](=O)[O-])c([O-])c([N+](=O)[O-])c1[O-]` here?
**A.** inactive: -31%

**Q.** With `CC(=O)Nc1ccc(Oc2c([N+](=O)[O-])cc([N+](=O)[O-])cc2[N+](=O)[O-])cc1` as the molecule, how does the inhibition read?
**A.** inactive: 5.6%

**Q.** Which inhibition does the source give for `O=P1(Nc2nc3ccc(Cl)cc3s2)COc2ccccc2O1` (configuration not stated) here?
**A.** inactive: -10%

**Q.** For `CCOc1ccc(C2=NCC(CBr)S2)cc1` (configuration not stated), which inhibition is on record?
**A.** inactive: -3.4%

**Q.** For `CC(C)(C)C(=O)NC(Sc1ccccc1)C(Cl)(Cl)Cl` (configuration not stated), which inhibition is on record?
**A.** inactive: -5.3%

**Q.** For `CC(C)c1ccc(OP(C)(=O)Nc2ccc(SC(F)(F)F)cc2)cc1` (configuration not stated), which inhibition is on record?
**A.** inactive: 13.8%

**Q.** With `CCN(CC)CCCOC(=O)C(O)(c1ccccc1)C1CCCCC1` (configuration not stated) as the molecule, how does the inhibition read?
**A.** inactive: -11.1%

**Q.** For `CC(=O)NC(SC(=S)N(CC(C)C)CC(C)C)C(Cl)(Cl)Cl` (configuration not stated), which inhibition is on record?
**A.** inactive: 4.1%

**Q.** With `Cc1ccc(OP(=O)(Nc2ccccn2)Oc2ccc(C)cc2)cc1` as the molecule, how does the inhibition read?
**A.** inactive: 2.5%

**Q.** For `Cc1ccccc1OP(=O)(Nc1ccccn1)Oc1ccccc1C`, which inhibition is on record?
**A.** inactive: -13.1%

**Q.** With `O=[N+]([O-])c1cc([N+](=O)[O-])c(OC2CCCCC2O)c([N+](=O)[O-])c1` (configuration not stated) as the molecule, how does the inhibition read?
**A.** inactive: 5.4%

**Q.** Which inhibition does the source give for `O=c1c2cc([N+](=O)[O-])ccc2[nH]c2c([N+](=O)[O-])cc([N+](=O)[O-])cc12` here?
**A.** inactive: -14.5%

**Q.** With `CCCCCOc1ccc(NP(C)(=O)Oc2ccc(Cl)cc2Cl)cc1` (configuration not stated) as the molecule, how does the inhibition read?
**A.** inactive: -9.4%

**Q.** Which inhibition does the source give for `CN(C)C(=O)Oc1noc2ccccc12` here?
**A.** inactive: 15.7%

**Q.** For `c1ccc(-c2nn[nH]n2)c(-c2nn[nH]n2)c1`, which inhibition is on record?
**A.** inactive: -7.4%

**Q.** For `Cc1ccc(NP(=O)(Oc2cccc(C)c2)Oc2cccc(C)c2)nc1`, which inhibition is on record?
**A.** inactive: -1.6%

**Q.** Which inhibition does the source give for `CCNC(=S)/N=C(\N)N[N+](=O)[O-]` here?
**A.** inactive: -25.4%

**Q.** With `O=C(NC1CCS(=O)(=O)C1)NP(=S)(Oc1ccccc1)Oc1ccccc1` (configuration not stated) as the molecule, how does the inhibition read?
**A.** inactive: 9.4%

**Q.** With `COc1ccc(OP(C)(=O)Nc2ccc(SC(F)(F)F)cc2)cc1` (configuration not stated) as the molecule, how does the inhibition read?
**A.** inactive: -18.2%

**Q.** Which inhibition does the source give for `CCOC(=O)c1ccc(NP(C)(=O)Oc2ccc(F)cc2)cc1` (configuration not stated) here?
**A.** inactive: 16.5%

**Q.** Which inhibition does the source give for `O=[N+]([O-])c1cc([N+](=O)[O-])c(CCN2CCOCC2)c([N+](=O)[O-])c1` here?
**A.** inactive: -8.8%

**Q.** For `Nc1cccc2ccc([As](=O)(O)O)cc12`, which inhibition is on record?
**A.** inactive: 2.4%

**Q.** For `CP(=O)(Nc1ccc(Cl)cc1Cl)Oc1ccccc1` (configuration not stated), which inhibition is on record?
**A.** inactive: -2.8%

**Q.** For `CP(=O)(OCCOc1ccccc1)OCCOc1ccccc1`, which inhibition is on record?
**A.** inactive: 3.6%

**Q.** For `CCN(N=Nc1nonc1N)c1nonc1N`, which inhibition is on record?
**A.** inactive: 21.2%

**Q.** For `O=P(Nc1nc2ccc(Cl)cc2s1)(c1ccccc1)c1ccccc1`, which inhibition is on record?
**A.** inactive: 0.9%

**Q.** Which inhibition does the source give for `Cc1cc(C)cc(OP(C)(=O)Nc2cccc(C(F)(F)F)c2)c1` (configuration not stated) here?
**A.** inactive: -1.2%

**Q.** For `CC(=O)Nc1ccc([As](=O)(O)O)cc1`, which inhibition is on record?
**A.** inactive: 0.9%

**Q.** Which inhibition does the source give for `O=C(O)c1ccccc1[As](=O)(O)O` here?
**A.** inactive: 10.8%

**Q.** Which inhibition does the source give for `COc1ccc(OP(C)(=O)Nc2ccccc2Br)cc1` (configuration not stated) here?
**A.** inactive: -37.2%

**Q.** With `Cc1cc(SC(NC(=O)c2ccc(F)cc2)C(Cl)(Cl)Cl)ncn1` (configuration not stated) as the molecule, how does the inhibition read?
**A.** inactive: 2%

**Q.** Which inhibition does the source give for `CCOP(=O)(Nc1ccccc1)OCC` here?
**A.** inactive: -0.3% and inactive: -14.8%

**Q.** With `Cc1ccc(NP(=O)(Oc2ccccc2F)Oc2ccccc2F)nc1` as the molecule, how does the inhibition read?
**A.** inactive: 1.2%

**Q.** Which inhibition does the source give for `Oc1ccccc1CNc1ccccn1` here?
**A.** inactive: 2.7%
